## CycPeptMPDB entries from one study

Source: CycPeptMPDB (Li et al. 2023), which took these values from Townsend et al. 2020, doi:10.26434/chemrxiv.13335941.v1.

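Conditions beyond the assay type are not listed; see the original paper. Other peptides of the study may be missing here. Entries at the database's floor value (log10 P of -10) are not listed.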

PAMPA is the parallel artificial membrane permeability assay, which has no cells and reads passive diffusion.
Permeability is in 10^-6 cm/s, converted from the database's log10 values; higher is more permeable.

- CC(C)C[C@@H]1NC(=O)[C@@H]2CCCN2C(=O)[C@@H](CC(C)C)NC(=O)[C@@H](CC(C)C)NC(=O)C[C@H](Cc2ccccc2)NC(=O)[C@@H]2CCCN2C(=O)[C@H](Cc2ccccc2)NC1=O: PAMPA 6.8 × 10^-6 cm/s
- CC(C)C[C@@H]1NC(=O)[C@@H](C)NC(=O)[C@H](Cc2ccccc2)NC(=O)[C@@H](CC(C)C)N(C)C(=O)[C@H]2CCCN2C(=O)[C@@H](CC(C)C)NC1=O: PAMPA 1.4 × 10^-6 cm/s
- CC(C)C[C@@H]1NC(=O)[C@H]2CCCN2C(=O)[C@H](CC(C)C)NC(=O)[C@@H](CC(C)C)N(C)C(=O)C[C@H](Cc2ccccc2)NC(=O)[C@H](Cc2ccccc2)NC1=O: PAMPA 5.5 × 10^-6 cm/s
- CCCN1CC(=O)N[C@H](CC(C)C)C(=O)N(C)[C@@H](CC(C)C)C(=O)N2CCC[C@H]2C(=O)N(Cc2ccccc2)CC(=O)N[C@@H](Cc2ccccc2)C(=O)N2CCC[C@H]2C1=O: PAMPA 3.2 × 10^-6 cm/s
- CC(C)C[C@@H]1NC(=O)CN(Cc2ccccc2)C(=O)[C@H](C)N(C)C(=O)[C@H]2CCCN2C(=O)[C@H](Cc2ccccc2)NC(=O)CN(Cc2ccccc2)C(=O)[C@@H]2CCCN2C1=O: PAMPA 1.5 × 10^-6 cm/s
- CC(C)C[C@@H]1NC(=O)[C@@H]2CCCN2C(=O)[C@@H](CC(C)C)N(C)C(=O)[C@@H](CC(C)C)NC(=O)[C@@H](C)N(C)C(=O)[C@H]2CCCN2C(=O)[C@H](Cc2ccccc2)NC1=O: PAMPA 0.56 × 10^-6 cm/s
- CC(C)C[C@H]1NC(=O)[C@H](CC(C)C)N(C)C(=O)[C@H](C)N(C)C(=O)[C@@H]2CCCN2C(=O)[C@H](Cc2ccccc2)NC(=O)CN(Cc2ccccc2)C(=O)[C@@H]2CCCN2C1=O: PAMPA 1.3 × 10^-6 cm/s
- CC(C)C[C@@H]1C(=O)N[C@@H](Cc2ccccc2)C(=O)N2CCC[C@@H]2C(=O)N[C@@H](Cc2ccccc2)CC(=O)N(C)[C@@H](CC(C)C)C(=O)N(Cc2ccccc2)CC(=O)N2CCC[C@H]2C(=O)N1C: PAMPA 3.7 × 10^-6 cm/s
- CC(C)C[C@@H]1C(=O)N[C@@H](Cc2ccccc2)C(=O)N2CCC[C@@H]2C(=O)N(C)[C@@H](C)C(=O)N(C)[C@@H](CC(C)C)C(=O)N(C)[C@@H](CC(C)C)C(=O)N2CCC[C@H]2C(=O)N1C: PAMPA 6.5 × 10^-6 cm/s
- CC(C)C[C@@H]1NC(=O)[C@@H](CC(C)C)N(C)C(=O)[C@@H](C)NC(=O)[C@H]2CCCN2C(=O)[C@H](Cc2ccccc2)NC(=O)[C@H](CC(C)C)N(C)C(=O)[C@@H]2CCCN2C1=O: PAMPA 2.6 × 10^-6 cm/s
- CC(C)C[C@@H]1NC(=O)[C@@H](C)N(C)C(=O)[C@H]2CCCN2C(=O)[C@H](Cc2ccccc2)NC(=O)[C@H](CC(C)C)N(C)C(=O)[C@@H]2CCCN2C(=O)[C@@H](CC(C)C)NC1=O: PAMPA 4.2 × 10^-6 cm/s
- CCCN1CC(=O)N(C)[C@@H](CC(C)C)C(=O)N(Cc2ccccc2)CC(=O)N2CCC[C@H]2C(=O)N(C)[C@@H](CC(C)C)C(=O)N[C@@H](Cc2ccccc2)C(=O)N2CCC[C@@H]2C1=O: PAMPA 7.4 × 10^-6 cm/s
- CC(C)C[C@@H]1C(=O)N[C@@H](Cc2ccccc2)C(=O)N2CCC[C@@H]2C(=O)N[C@H](C)C(=O)N(C)[C@@H](CC(C)C)C(=O)N[C@H](CC(C)C)C(=O)N2CCC[C@@H]2C(=O)N1C: PAMPA 0.14 × 10^-6 cm/s
- CC(C)C[C@@H]1C(=O)N2CCC[C@H]2C(=O)N(Cc2ccccc2)CC(=O)N[C@@H](Cc2ccccc2)C(=O)N2CCC[C@@H]2C(=O)N[C@@H](Cc2ccccc2)CC(=O)N[C@H](CC(C)C)C(=O)N1C: PAMPA 2.1 × 10^-6 cm/s
- CCCN1CC(=O)N[C@@H](CC(C)C)C(=O)N(C)[C@H](CC(C)C)C(=O)N2CCC[C@@H]2C(=O)N(C)[C@@H](CC(C)C)C(=O)N[C@@H](Cc2ccccc2)C(=O)N2CCC[C@@H]2C1=O: PAMPA 1.9 × 10^-6 cm/s
- CC(C)C[C@@H]1C(=O)N[C@@H](Cc2ccccc2)C(=O)N2CCC[C@H]2C(=O)N[C@@H](Cc2ccccc2)CC(=O)N[C@H](CC(C)C)C(=O)N(Cc2ccccc2)CC(=O)N2CCC[C@@H]2C(=O)N1C: PAMPA 0.14 × 10^-6 cm/s
- CC(C)C[C@H]1C(=O)N[C@@H](Cc2ccccc2)C(=O)N2CCC[C@@H]2C(=O)N[C@@H](Cc2ccccc2)CC(=O)N(Cc2ccccc2)CC(=O)N[C@@H](Cc2ccccc2)CC(=O)N2CCC[C@@H]2C(=O)N1C: PAMPA 2 × 10^-6 cm/s
- CC(C)C[C@@H]1NC(=O)[C@@H](CC(C)C)N(C)C(=O)[C@@H](C)N(C)C(=O)[C@H](Cc2ccccc2)NC(=O)CN(Cc2ccccc2)C(=O)[C@@H]2CCCN2C1=O: PAMPA 19 × 10^-6 cm/s
- CC(C)C[C@@H]1NC(=O)[C@H](CC(C)C)N(C)C(=O)[C@@H](C)N(C)C(=O)[C@H](Cc2ccccc2)NC(=O)CN(Cc2ccccc2)C(=O)[C@@H]2CCCN2C1=O: PAMPA 12 × 10^-6 cm/s
- CC(C)C[C@@H]1C(=O)N[C@@H](Cc2ccccc2)C(=O)N2CCC[C@@H]2C(=O)N(C)[C@@H](C)C(=O)N[C@H](CC(C)C)C(=O)N[C@H](CC(C)C)C(=O)N2CCC[C@@H]2C(=O)N1C: PAMPA 5 × 10^-6 cm/s
- CC(C)C[C@H]1NC(=O)C[C@H](Cc2ccccc2)NC(=O)[C@@H]2CCCN2C(=O)[C@H](Cc2ccccc2)NC(=O)[C@H](CC(C)C)N(C)C(=O)[C@@H]2CCCN2C(=O)C[C@H](Cc2ccccc2)NC1=O: PAMPA 1.8 × 10^-6 cm/s
- CC(C)C[C@@H]1C(=O)N[C@@H](Cc2ccccc2)C(=O)N(C)[C@H](C)C(=O)N[C@H](CC(C)C)C(=O)N[C@H](CC(C)C)C(=O)N2CCC[C@H]2C(=O)N1C: PAMPA 1.6 × 10^-6 cm/s
- CC(C)C[C@@H]1NC(=O)[C@@H]2CCCN2C(=O)C[C@H](Cc2ccccc2)NC(=O)[C@@H](CC(C)C)N(C)C(=O)[C@H](C)N(C)C(=O)[C@H](Cc2ccccc2)NC1=O: PAMPA 0.66 × 10^-6 cm/s
- CC(C)C[C@@H]1C(=O)N(Cc2ccccc2)CC(=O)N2CCC[C@H]2C(=O)N(C)[C@@H](CC(C)C)C(=O)N[C@@H](Cc2ccccc2)C(=O)N2CCC[C@@H]2C(=O)N[C@@H](Cc2ccccc2)CC(=O)N1C: PAMPA 2.3 × 10^-6 cm/s